{
  "sequences": {"note": "Protein sequences, listed by entry. Tags and fused reporters are not part of them. Residues count along the entry.", "UniProt P22303, 32-614": "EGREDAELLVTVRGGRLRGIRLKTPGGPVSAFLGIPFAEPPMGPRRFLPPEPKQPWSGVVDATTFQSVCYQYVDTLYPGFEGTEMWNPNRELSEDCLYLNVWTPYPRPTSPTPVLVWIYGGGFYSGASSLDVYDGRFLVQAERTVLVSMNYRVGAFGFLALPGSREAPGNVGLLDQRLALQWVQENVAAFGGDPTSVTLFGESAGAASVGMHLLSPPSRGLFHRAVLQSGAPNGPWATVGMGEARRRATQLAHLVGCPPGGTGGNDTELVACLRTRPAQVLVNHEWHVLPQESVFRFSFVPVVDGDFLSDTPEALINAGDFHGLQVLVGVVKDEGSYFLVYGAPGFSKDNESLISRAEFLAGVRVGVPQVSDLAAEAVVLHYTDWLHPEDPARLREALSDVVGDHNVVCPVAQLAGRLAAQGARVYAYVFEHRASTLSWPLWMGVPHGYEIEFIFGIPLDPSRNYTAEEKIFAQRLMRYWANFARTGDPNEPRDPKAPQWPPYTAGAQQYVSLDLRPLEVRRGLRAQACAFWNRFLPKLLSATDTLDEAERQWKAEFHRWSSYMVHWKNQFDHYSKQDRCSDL", "UniProt P06276, 29-602": "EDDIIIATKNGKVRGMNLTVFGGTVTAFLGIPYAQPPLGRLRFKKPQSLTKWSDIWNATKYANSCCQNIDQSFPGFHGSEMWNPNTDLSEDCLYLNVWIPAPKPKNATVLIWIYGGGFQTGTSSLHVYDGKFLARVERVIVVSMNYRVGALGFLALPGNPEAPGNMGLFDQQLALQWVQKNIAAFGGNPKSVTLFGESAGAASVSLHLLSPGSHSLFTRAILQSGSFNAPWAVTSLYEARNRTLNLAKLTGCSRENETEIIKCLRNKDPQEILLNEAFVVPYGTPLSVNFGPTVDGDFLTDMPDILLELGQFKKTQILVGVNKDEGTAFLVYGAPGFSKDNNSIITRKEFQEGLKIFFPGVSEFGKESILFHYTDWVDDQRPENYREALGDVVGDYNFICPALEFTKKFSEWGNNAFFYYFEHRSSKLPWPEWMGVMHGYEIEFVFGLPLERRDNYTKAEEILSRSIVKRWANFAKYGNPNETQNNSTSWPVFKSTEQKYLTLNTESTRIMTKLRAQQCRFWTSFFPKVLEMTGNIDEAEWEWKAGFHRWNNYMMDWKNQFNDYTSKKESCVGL"},
  "source": "paper PMC8563940",
  "about": "(Scientific Reports, 2021)",
  "key": {"[1]": {"molecular_target": "T1, human acetylcholinesterase (hAChE) (Homo sapiens, UniProt P22303)", "T1 construct": "made in house", "test": "Progressive inhibition of hAChE by organophosphorus pesticides (Ellman method)", "format": "biochemical"}, "[2]": {"molecular_target": "T2, human butyrylcholinesterase (hBChE) (Homo sapiens, UniProt P06276)", "T2 construct": "hBChE derived from purified human plasma; from tissue; host or cells: human plasma", "test": "Progressive inhibition of hBChE by organophosphorus pesticides (Ellman method)", "format": "biochemical", "conditions": "25 °C, ± SEM, read-out: ki, overall second-order rate constant of inhibition (converted)"}},
  "data": [
    {"smiles": "CCCSP(=O)(OCC)SCCC", "note": "[Ethoprophos, ethoprophos]", "values": [
      {"measurement": "ki above the rate for fenamiphos", "setting": "[1]; hAChE", "result": 16, "unit": "fold"},
      {"measurement": "ki higher than that of phosalone and methamidophos", "setting": "[1]; hAChE", "result": "approximately 30 fold"},
      {"measurement": "more effective in hAChE inhibition than in BChE inhibition", "setting": "[1]; hAChE vs BChE", "result": 4, "unit": "times"},
      {"measurement": "kinact/KI", "setting": "[1]; hAChE, 25 °C, ± SEM, read-out: ki, overall second-order rate constant of inhibition (converted)", "result": 1080, "unit": "M⁻¹ s⁻¹"},
      {"measurement": "kinact/KI", "setting": "[2]", "result": 264, "unit": "M⁻¹ s⁻¹"}
    ]}
  ]
}
